Earlier results on 1 substance are cited in patent US6410590B1, “Compounds having antitumor activity: process for their preparation and pharmaceutical compositions containing them” (Dr. Reddy's Research Foundation, priority 2000, dated 2002).

The subject of the data set is H9 cell. To be noted: cited from earlier work.

As for “Dehydroandrographolide Succinic acid monoester [DASM]”, the “concentrations nontoxic to the H9 cell” value was 50 to 200 µg/mL.
